These results are taken from patent publication US20220387407A1 (priority 2021, published 2022).

Marks after values point to notes of the source that are not given here.

The subject of series [1] is freely-moving rats. Kind of series: Tissue O2 saturation (SpO2) analysis after morphine in freely-moving rats. The note with it: for Cumulative change in sPO2: Post-drug, % change from Pre: 0-15 min post-drug.
The test system of series [2] is freely-moving rats. Kind of series: Blood pressure and heart rate measurement after morphine in freely-moving rats. The note with it: morphine 10 mg/kg IV, 0-15 min post-injection; Vehicle group (before vehicle).

Consider `CN1CC[C@]23c4c5ccc(O)c4O[C@H]2[C@@H](O)C=C[C@H]3[C@H]1C5` [Morphine, morphine], for which the “Cumulative change in sPO2: Morphine, % change from Pre” value in the series on freely-moving rats [1] (morphine 10 mg/kg IV, 0-15 min after injection, Vehicle group (before vehicle)) is −14.5 ± 3.4 %. In the series with freely-moving rats [2], the “DBP, mmHg: Morphine, % change from Pre (cumulative)” value is −10.5 ± 4.3 %; the “HR/MAP, mmHg/beats/min: Morphine, % change from Pre (cumulative)” value was −14.2 ± 6.1 %; the “Heart rate (HR), beats/min: Morphine, % change from Pre (cumulative)” value is given as −23.9 ± 5.9%; the “MAP, mmHg: Morphine, % change from Pre (cumulative)” value was −7.5 ± 3.1 %. Besides, the “SBP, MmHg: Morphine, % change from Pre (cumulative)” value with freely-moving rats [2] is on record as −3.6 ± 2.8%.
In the case of `CC1(C)CC(O)CC(C)(C)N1[O]` [Tempol, 4-hydroxy-2,2,6,6-tetramethylpiperidine-N-oxyl], the “Cumulative change in sPO2: Post-drug, % change from Pre” value in the series on freely-moving rats [1] (Tempol 60 mg/kg IV 15 min after morphine 10 mg/kg IV) was −9.6 ± 4.0 %; in the series with freely-moving rats [1] (Tempol 100 mg/kg IV 15 min after morphine 10 mg/kg IV) it was −4.5 ± 0.6*^,† %.
